## Binding of CDR-mutated scFvs to a peptide of the spike HR2 region

Binding partner: SARS-CoV-2 spike HR2 peptide, sequence PDVDLGDISGINAS.

Parent: Ab-14, a human scFv built as VH, three GGGGS repeats, VL. Only the CDRs of the light chain vary.
VH: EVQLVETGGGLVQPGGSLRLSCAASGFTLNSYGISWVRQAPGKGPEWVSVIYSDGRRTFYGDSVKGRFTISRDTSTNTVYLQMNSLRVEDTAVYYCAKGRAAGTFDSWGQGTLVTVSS
VL: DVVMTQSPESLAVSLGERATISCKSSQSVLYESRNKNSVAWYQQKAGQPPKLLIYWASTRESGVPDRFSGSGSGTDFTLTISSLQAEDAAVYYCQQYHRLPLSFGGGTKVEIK

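The variants were designed computationally from a first round of random CDR variants and then made and measured. Group labels follow the data file (Ctrl: baseline library sampled from a position-specific scoring matrix, with some repeated check sequences; Rand: our label for a block that the file lists under HC and that is probably the random mutants of the ten best first-round binders; GP: Gaussian process model; HC: hill climbing; Gen: genetic algorithm; Gibbs: Gibbs sampling; a sequence that several methods proposed may carry one label only). The scFvs were displayed on barcoded MATa yeast, the peptide on MATalpha yeast. After mating in shaken culture at 30 °C for 16 h, diploids were selected and their barcode pairs sequenced. Read counts were normalised to the haploid input and turned into Kd by a linear fit to BCL2-family pairs of known affinity, for each replicate. Mating was done six times.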

Each variant is given by its three light chain CDRs, as the data file delimits them; those of the parent are KSSQSVLYESRNKNSVA, WASTRES, QQYHRLPLS. Variants here have at most six changes. Each Kd is an estimate from the mating assay, the geometric mean of the replicates in which the pair was seen; lower is stronger. An entry "nd" has no value in the source: the pair was not observed among the diploids in any replicate. This suggests poor binding but is not conclusive.

The variant KCSQSVLYESRNGNSVA | WASTRES | QQYHRLPLS [Ctrl] gave nd (0 of 6 replicates; controls 2 of 18). With KQSQSVLYELRNKRSVA | DASTRES | QQYHRLPLS [Rand] the result was 4.1 nM (6 of 6 replicates; controls 0 of 18). With KFSQSVLYESRNKNAVA | NASQRES | QQYHRLPLS [GP_Gen] the result was 1.3 nM (6 of 6 replicates; controls 1 of 18). For KSSLSELFESRNKNSVA | NASTRES | QQYHRLPLS [GP_HC], the assay gave 2.2 nM (6 of 6 replicates; controls 7 of 18). The variant KLIQPVLYESRNKNSVA | WDSTREE | QQYHRLPLS [Ctrl] showed 140 nM (1 of 6 replicates; controls 2 of 18).

The variant KLSQSQLYESRNKNSVA | GASTRES | QQYHRLPLS [GP_Gen] gave 440 pM (6 of 6 replicates; controls 0 of 18). The variant KLPNSTLYESRNKNSVA | NASTRES | QQYHRLPLS [GP_HC] gave 1.1 nM (6 of 6 replicates; controls 0 of 18). The variant KASQSWGYESRNKNSVA | GASTRES | QQYHRLPLS [GP_HC] gave 400 pM (6 of 6 replicates; controls 2 of 18). The variant KISQMVLYESENKNSVA | WASTHES | QQYHRLPLS [Ctrl] gave 260 nM (2 of 6 replicates; controls 0 of 18). For KVSISYLYESRNKNSVA | EASTRES | QQYHRLPLM [GP_HC], the assay gave 280 pM (6 of 6 replicates; controls 0 of 18).

For KSSISYLYESVNKNSVA | EASTRES | QQYHRLPLS [GP_HC], the assay gave 3.1 nM (6 of 6 replicates; controls 2 of 18). For KSSQSVLYEARNKNSVA | EASTRES | QQYHRLPLS [Ctrl], the assay gave 2.2 nM (6 of 6 replicates; controls 0 of 18). The variant KFSQWVLYESRTKNSVA | NASTRES | QQYERLPLS [GP_HC] gave 1.2 nM (6 of 6 replicates; controls 1 of 18). The variant KSSPSELFESRNKNSVA | DASTRES | QQYHRLPLS [GP_HC] gave 470 pM (6 of 6 replicates; controls 0 of 18). With KFSQSVLYESRNKNSVA | EASTRMS | QQYHRLPLS [GP_Gen] the result was nd (0 of 6 replicates; controls 1 of 18).

With KSSISVLDYDRNKNSVA | WASERES | QQYHRLPLS [Ctrl] the result was 12 nM (6 of 6 replicates; controls 0 of 18). The variant HSSPYVLYESVNKNSVA | NASTRES | QDYHRLPLS [Rand] gave 2.3 nM (6 of 6 replicates; controls 2 of 18). With KVLQSVNYEGRNKNSVA | HASTRED | QQYHRLPLS [GP_HC] the result was 1.7 nM (6 of 6 replicates; controls 1 of 18). The variant KSSQSVLYESRNKNSGA | WASTREI | QQYHRLLLS [Ctrl] gave nd (0 of 6 replicates; controls 0 of 18). The variant KVYQSVLYESRNKNSVA | NASQRES | QQYHRLPLS [GP_Gen] gave 730 pM (6 of 6 replicates; controls 3 of 18).

The variant KLSMSVLYESTNKNSVA | WASTRES | QQMFRLPLS [Ctrl] gave nd (0 of 6 replicates; controls 0 of 18). With KLSQSVLYEERNKNNVA | NASQRES | QQYHRLPLS [GP_Gen] the result was 840 pM (6 of 6 replicates; controls 2 of 18). For KLSQQVLYESRNKNSVA | WASTRES | QQYHRLPLS [Ctrl], the assay gave 3.7 nM (6 of 6 replicates; controls 0 of 18). For KSIISVLYESRNKNSVA | WASTREV | QQYHQLPLS [Ctrl], the assay gave nd (0 of 6 replicates; controls 0 of 18). The variant KSSQSVLTESRNKNSVA | RASTREP | QQYHRLPLS [Ctrl] showed nd (0 of 6 replicates; controls 0 of 18).

The variant KSSQSYLYESTNKNSVA | WASTRES | QQYHRLPLS [Ctrl] showed 50 nM (2 of 6 replicates; controls 1 of 18). The variant ESSQSVLSESRNKNSVA | GASTRES | NQYHRLPLS [Ctrl] showed 2.5 nM (6 of 6 replicates; controls 3 of 18). The variant KLSQAFLNESRNKNSVA | DANTRES | QQYHRLPLS [GP_HC] gave 2.0 nM (6 of 6 replicates; controls 1 of 18). The variant KSQQSELYESRNKNSVA | EASTRES | QQYHRLPLS [GP_Gen] showed 410 pM (6 of 6 replicates; controls 0 of 18). For KLSQSWIYESRNKNSVA | GASTRES | QQYHRLPLS [GP_HC], the assay gave 580 pM (6 of 6 replicates; controls 2 of 18).

The variant KLRQSTLYESRNKNSVA | NASTRES | QQWHRLPLS [GP_HC] gave nd (0 of 6 replicates; controls 0 of 18). The variant KMEQGVLYESRNKNSVA | GASVRES | QQYHRLPLS [GP_HC] gave 430 pM (6 of 6 replicates; controls 0 of 18). With KSSQSVLPVSRNKNSVA | WASTRES | QQYHRLPLS [Ctrl] the result was nd (0 of 6 replicates; controls 0 of 18). For KLQQSGLYESRNKNSVA | NASTRES | QQYHRLPLS [GP_Gen], the assay gave 950 pM (6 of 6 replicates; controls 1 of 18). The variant KSSQSDQYESRNKNSVA | RASYRES | QQYHRLPLS [Ctrl] gave nd (0 of 6 replicates; controls 0 of 18).

With KFSQSNLYESRNTNSVA | DASTRES | QQYHRLPLS [Ctrl] the result was 1.0 nM (6 of 6 replicates; controls 0 of 18). The variant KLSQSWLYESRQKNSVA | NASTRES | QQYHRLPLS [GP_Gen] gave 1.1 nM (6 of 6 replicates; controls 1 of 18). The variant KISQWKLGESRNKNSVA | DASQRES | QQYHRLPLS [GP_Gibbs] gave 790 pM (6 of 6 replicates; controls 1 of 18). With KLMQGALYESRNKNSVA | GASTRES | QQYHRLPLS [GP_HC] the result was 1.1 nM (6 of 6 replicates; controls 0 of 18). With DSSQSVLYEDRNKNSVA | DASTRES | QEYHRLPLS [Ctrl] the result was 8.6 nM (6 of 6 replicates; controls 1 of 18).

With KMSQSELYESRNKNSVA | WASTRES | QQYHRLPLS [Ctrl] the result was 11 nM (6 of 6 replicates; controls 2 of 18). The variant NSSQSVRYESRNKNSVA | WASTREL | QTYARLPLS [Ctrl] gave nd (0 of 6 replicates; controls 1 of 18). With KMENSNGYESRNKNSVA | NASTRES | QQYHRLPLS [GP_Gibbs] the result was 360 pM (6 of 6 replicates; controls 4 of 18). With KSSGSYLYESRNKNSVA | EASTRES | QQYHRLPLM [GP_HC] the result was 1.7 nM (6 of 6 replicates; controls 0 of 18). With KSSQAFLYESRNKNSVA | DANTRES | QQYHRLPLS [GP_HC] the result was 460 pM (6 of 6 replicates; controls 1 of 18).

The variant KSSMSVLYESRNKNSVA | MASTRES | QQYHYLPES [Ctrl] gave nd (0 of 6 replicates; controls 0 of 18). With KSSWSVLYESRNKNSVA | WASTRES | QQVHRLPLS [Ctrl] the result was nd (0 of 6 replicates; controls 0 of 18).

The 2 strongest on average among those seen in every replicate, once more:

CDR-L1,CDR-L2,CDR-L3,group,Kd (apparent),seen in,empty controls
KVSISYLYESRNKNSVA,EASTRES,QQYHRLPLM,GP_HC,280 pM,6/6,0/18
KMENSNGYESRNKNSVA,NASTRES,QQYHRLPLS,GP_Gibbs,360 pM,6/6,4/18

Of ten entries with the parent sequence, four were seen in most replicates (averages 2.2 nM to 240 nM), three in one and three in none, so single entries are noisy. Background: pairings of all light chain designs with three empty control strains gave a value in 4% of cases (median 430 nM, 5th percentile 38 nM). Values in that range, when seen in few replicates, are hard to tell from nonspecific mating. Also given: how often the same scFv was detected with the empty control strains. A sequence measured in both rounds can read differently, since the two assays cover different ranges. The authors' rule: three or more of the six replicates give a measured affinity, fewer mean a poor binder.

The measurements come from Li et al. 2023 (doi:10.1038/s41467-023-39022-2) through the FLAb antibody collection.